Earlier results in patent US6159733A, “Method for photoinactivating malignant cells” (priority 1996, dated 2000).

Tested on: cells
Settings: cited from earlier work

hematoporphyrin derivative [HPD]
cell size and photosensitizer uptake: correlation between cell size and photosensitizer uptake
